Assay results taken from article PMC5932218 (Structure (London, England : 1993), 2018).

Target: calmodulin (CaM) (Homo sapiens, UniProt P0DP25)
Assay: Isothermal titration calorimetry of CaM binding to NaV IG peptides
[1] = ITC, 20 mM TRIS, 50 mM NaCl, 1 mM CaCl2, pH 7.4, triplicate, ± SD

CC[C@H](C)[C@H](NC(=O)[C@H](CC(=O)O)NC(=O)[C@H](CCC(N)=O)NC(=O)[C@H](CO)NC(=O)CNC(=O)[C@@H]1CCCN1C(=O)CN)C(=O)N[C@@H](Cc1ccccc1)C(=O)N[C@@H](CCSC)C(=O)N[C@H](C(=O)N[C@@H](CCC(=O)O)C(=O)N[C@@H](CCC(=O)O)C(=O)N[C@@H](CCC(N)=O)C(=O)N[C@@H](CCCCN)C(=O)N[C@@H](CCCCN)C(=O)N[C@@H](Cc1ccc(O)cc1)C(=O)N[C@@H](Cc1ccc(O)cc1)C(=O)N[C@@H](CC(N)=O)C(=O)N[C@@H](C)C(=O)N[C@@H](CCSC)C(=O)N[C@@H](CCCCN)C(=O)N[C@@H](CCCCN)C(=O)N[C@@H](CC(C)C)C(=O)NCC(=O)N[C@@H](CO)C(=O)N[C@@H](CCCCN)C(=O)N[C@@H](CCCCN)C(=O)N1CCC[C@H]1C(=O)N[C@@H](CCC(N)=O)C(=O)N[C@@H](CCCCN)C(=O)N1CCC[C@H]1C(=O)N[C@H](C(=O)N1CCC[C@H]1C(=O)N[C@@H](CCCNC(=N)N)C(=O)N1CCC[C@H]1C(=O)N[C@@H](C)C(=O)N[C@@H](CC(N)=O)C(=O)N[C@@H](CCCCN)C(=O)N[C@@H](Cc1ccccc1)C(=O)N[C@@H](CCC(N)=O)C(=O)NCC(=O)N[C@@H](CCSC)C(=O)N[C@H](C(=O)N[C@@H](Cc1ccccc1)C(=O)N[C@@H](CC(=O)O)C(=O)N[C@@H](Cc1ccccc1)C(=O)N[C@H](C(=O)N[C@H](C(=O)N[C@@H](CCCCN)C(=O)N[C@@H](CCC(N)=O)C(=O)N[C@H](C(=O)O)C(C)C)[C@@H](C)O)C(C)C)C(C)C)[C@@H](C)CC)[C@@H](C)O [NaV 1.2] was tested, and the stoichiometry (ITC, 20 mM TRIS, 50 mM NaCl, 1 mM CaCl2, pH 7.4, 1:1 binding model, triplicate, ± SD) was 1.02 ± 0.02, the “ΔH” value [1] was -12 ± 0.4 kcal/mol and the “ΔS (cal/mol•deg)” value [1] was −4.2 ± 1.9 cal/mol•deg. The Kd (SD) was 29 ± 6 nM.
